Reference: the NIST ThermoML archive (doi:10.1007/s10765-007-0346-0)

What was measured:
[1] = xn = mol fraction of the nth substance listed; details: 101 kPa, Liquid, Capillary tube (Ostwald / Ubbelohde) method
[2] = 101.33 kPa, Liquid, Capillary tube (Ostwald / Ubbelohde) method

For `CCCCOCCCC` [dibutyl ether] + CCCCCC, the kinematic viscosity ([1]; 283.15 K, x1 = 0.0506) was 5.334e-07 ± 4.6e-09 m2/s, the kinematic viscosity ([1]; 283.15 K, x1 = 0.105) was 5.573e-07 ± 4.8e-09 m2/s and the kinematic viscosity ([1]; 283.15 K, x1 = 0.1974) was 5.962e-07 ± 5.1e-09 m2/s. It also gave a kinematic viscosity ([1]; 283.15 K, x1 = 0.2961) of 6.404e-07 ± 5.4e-09 m2/s, a kinematic viscosity ([1]; 283.15 K, x1 = 0.3967) of 6.883e-07 ± 5.8e-09 m2/s and a kinematic viscosity ([1]; 283.15 K, x1 = 0.4991) of 7.393e-07 ± 6.2e-09 m2/s. The kinematic viscosity ([1]; 283.15 K, x1 = 0.5974) was 7.897e-07 ± 6.6e-09 m2/s, the kinematic viscosity ([1]; 283.15 K, x1 = 0.7004) was 8.479e-07 ± 7.1e-09 m2/s and the kinematic viscosity ([1]; 283.15 K, x1 = 0.8272) was 9.2e-07 ± 8e-09 m2/s. It also gave a kinematic viscosity ([1]; 283.15 K, x1 = 0.9125) of 9.723e-07 ± 8e-09 m2/s, a kinematic viscosity ([1]; 283.15 K, x1 = 0.9514) of 9.985e-07 ± 8.2e-09 m2/s and a kinematic viscosity ([1]; 298.15 K, x1 = 0.0506) of 4.626e-07 ± 4.1e-09 m2/s. It also gave a kinematic viscosity ([1]; 298.15 K, x1 = 0.105) of 4.812e-07 ± 4.2e-09 m2/s, a kinematic viscosity ([1]; 298.15 K, x1 = 0.1974) of 5.131e-07 ± 4.5e-09 m2/s and a kinematic viscosity ([1]; 298.15 K, x1 = 0.2961) of 5.51e-07 ± 4.8e-09 m2/s. For the same compound, the kinematic viscosity ([1]; 298.15 K, x1 = 0.3967) was 5.884e-07 ± 5.1e-09 m2/s, the kinematic viscosity ([1]; 298.15 K, x1 = 0.4991) was 6.293e-07 ± 5.4e-09 m2/s and the kinematic viscosity ([1]; 298.15 K, x1 = 0.5974) was 6.69e-07 ± 5.7e-09 m2/s. It also gave a kinematic viscosity ([1]; 298.15 K, x1 = 0.7004) of 7.126e-07 ± 6e-09 m2/s, a kinematic viscosity ([1]; 298.15 K, x1 = 0.8272) of 7.686e-07 ± 6.5e-09 m2/s and a kinematic viscosity ([1]; 298.15 K, x1 = 0.9125) of 8.077e-07 ± 6.8e-09 m2/s. For the same compound, the kinematic viscosity ([1]; 298.15 K, x1 = 0.9514) was 8.287e-07 ± 7e-09 m2/s, the kinematic viscosity ([1]; 313.15 K, x1 = 0.0506) was 4.167e-07 ± 3.7e-09 m2/s and the kinematic viscosity ([1]; 313.15 K, x1 = 0.105) was 4.309e-07 ± 3.8e-09 m2/s. It also gave a kinematic viscosity ([1]; 313.15 K, x1 = 0.1974) of 4.53e-07 ± 4e-09 m2/s, a kinematic viscosity ([1]; 313.15 K, x1 = 0.2961) of 4.771e-07 ± 4.2e-09 m2/s and a kinematic viscosity ([1]; 313.15 K, x1 = 0.3967) of 5.079e-07 ± 4.5e-09 m2/s. The kinematic viscosity ([1]; 313.15 K, x1 = 0.4991) was 5.414e-07 ± 4.7e-09 m2/s, the kinematic viscosity ([1]; 313.15 K, x1 = 0.5974) was 5.757e-07 ± 5e-09 m2/s and the kinematic viscosity ([1]; 313.15 K, x1 = 0.7004) was 6.104e-07 ± 5.3e-09 m2/s. The kinematic viscosity ([1]; 313.15 K, x1 = 0.8272) was 6.552e-07 ± 5.6e-09 m2/s, the kinematic viscosity ([1]; 313.15 K, x1 = 0.9125) was 6.851e-07 ± 5.9e-09 m2/s and the kinematic viscosity ([1]; 313.15 K, x1 = 0.9514) was 7.017e-07 ± 6e-09 m2/s.

With `CCCCOCCCC` [dibutyl ether] the kinematic viscosity ([2]; 283.15 K) was 1.03e-06 ± 8.2e-09 m2/s, the kinematic viscosity ([2]; 298.15 K) was 8.563e-07 ± 6.9e-09 m2/s and the kinematic viscosity ([2]; 313.15 K) was 7.187e-07 ± 5.9e-09 m2/s.

`CCCCOCCCC` [dibutyl ether] + CCCCCCC gave a kinematic viscosity ([1]; 283.15 K, x1 = 0.0479) of 6.828e-07 ± 5.8e-09 m2/s, a kinematic viscosity ([1]; 283.15 K, x1 = 0.0951) of 6.97e-07 ± 5.9e-09 m2/s and a kinematic viscosity ([1]; 283.15 K, x1 = 0.1907) of 7.247e-07 ± 6.1e-09 m2/s. The kinematic viscosity ([1]; 283.15 K, x1 = 0.2992) was 7.599e-07 ± 6.4e-09 m2/s, the kinematic viscosity ([1]; 283.15 K, x1 = 0.399) was 7.945e-07 ± 6.6e-09 m2/s and the kinematic viscosity ([1]; 283.15 K, x1 = 0.4989) was 8.296e-07 ± 6.9e-09 m2/s. It also gave a kinematic viscosity ([1]; 283.15 K, x1 = 0.5993) of 8.666e-07 ± 7.2e-09 m2/s, a kinematic viscosity ([1]; 283.15 K, x1 = 0.6973) of 9.023e-07 ± 7.5e-09 m2/s and a kinematic viscosity ([1]; 283.15 K, x1 = 0.7993) of 9.451e-07 ± 7.8e-09 m2/s. It also gave a kinematic viscosity ([1]; 283.15 K, x1 = 0.8986) of 9.862e-07 ± 8.2e-09 m2/s, a kinematic viscosity ([1]; 283.15 K, x1 = 0.9501) of 1.009e-06 ± 8.3e-09 m2/s and a kinematic viscosity ([1]; 283.15 K, x1 = 1) of 1.03e-06 ± 8.5e-09 m2/s. The kinematic viscosity ([1]; 298.15 K, x1 = 0.0479) was 5.867e-07 ± 5.1e-09 m2/s, the kinematic viscosity ([1]; 298.15 K, x1 = 0.0951) was 5.979e-07 ± 5.1e-09 m2/s and the kinematic viscosity ([1]; 298.15 K, x1 = 0.1907) was 6.2e-07 ± 5.3e-09 m2/s. It also gave a kinematic viscosity ([1]; 298.15 K, x1 = 0.2992) of 6.468e-07 ± 5.5e-09 m2/s, a kinematic viscosity ([1]; 298.15 K, x1 = 0.399) of 6.723e-07 ± 5.7e-09 m2/s and a kinematic viscosity ([1]; 298.15 K, x1 = 0.4989) of 6.985e-07 ± 5.9e-09 m2/s. For the same compound, the kinematic viscosity ([1]; 298.15 K, x1 = 0.5993) was 7.269e-07 ± 6.2e-09 m2/s, the kinematic viscosity ([1]; 298.15 K, x1 = 0.6973) was 7.551e-07 ± 6.4e-09 m2/s and the kinematic viscosity ([1]; 298.15 K, x1 = 0.7993) was 7.861e-07 ± 6.6e-09 m2/s. It also gave a kinematic viscosity ([1]; 298.15 K, x1 = 0.8986) of 8.17e-07 ± 6.9e-09 m2/s, a kinematic viscosity ([1]; 298.15 K, x1 = 0.9501) of 8.332e-07 ± 7e-09 m2/s and a kinematic viscosity ([1]; 298.15 K, x1 = 1) of 8.563e-07 ± 7.2e-09 m2/s. The kinematic viscosity ([1]; 313.15 K, x1 = 0.0479) was 5.078e-07 ± 4.5e-09 m2/s, the kinematic viscosity ([1]; 313.15 K, x1 = 0.0951) was 5.17e-07 ± 4.5e-09 m2/s and the kinematic viscosity ([1]; 313.15 K, x1 = 0.1907) was 5.355e-07 ± 4.7e-09 m2/s. It also gave a kinematic viscosity ([1]; 313.15 K, x1 = 0.2992) of 5.579e-07 ± 4.9e-09 m2/s, a kinematic viscosity ([1]; 313.15 K, x1 = 0.399) of 5.79e-07 ± 5e-09 m2/s and a kinematic viscosity ([1]; 313.15 K, x1 = 0.4989) of 6.001e-07 ± 5.2e-09 m2/s. The kinematic viscosity ([1]; 313.15 K, x1 = 0.5993) was 6.225e-07 ± 5.4e-09 m2/s, the kinematic viscosity ([1]; 313.15 K, x1 = 0.6973) was 6.445e-07 ± 5.5e-09 m2/s and the kinematic viscosity ([1]; 313.15 K, x1 = 0.7993) was 6.687e-07 ± 5.7e-09 m2/s. For the same compound, the kinematic viscosity ([1]; 313.15 K, x1 = 0.8986) was 6.933e-07 ± 5.9e-09 m2/s, the kinematic viscosity ([1]; 313.15 K, x1 = 0.9501) was 7.051e-07 ± 6e-09 m2/s and the kinematic viscosity ([1]; 313.15 K, x1 = 1) was 7.187e-07 ± 6.2e-09 m2/s.

± gives the expanded uncertainty stated by the source.
